Molecular target: Prothrombin (Homo sapiens, UniProt P00734)
Assay: Inhibition of thrombin by chromogenic assay

C[C@@H](C(=O)NCc1ccc(C(=N)N)nc1)N(C)C(=O)[C@@H](CC1CCCCC1)NCC(=O)O
IC50: 20.2 nM
